Test results: publication PMC6480602, “Design, Synthesis, and Evaluation of Monoamine Oxidase A Inhibitors–Indocyanine Dyes Conjugates as Targeted Antitumor Agents” (Molecules, 2019)

Chains of the proteins cited; added tags and fusions are not shown.
UniProt P21397, whole entry: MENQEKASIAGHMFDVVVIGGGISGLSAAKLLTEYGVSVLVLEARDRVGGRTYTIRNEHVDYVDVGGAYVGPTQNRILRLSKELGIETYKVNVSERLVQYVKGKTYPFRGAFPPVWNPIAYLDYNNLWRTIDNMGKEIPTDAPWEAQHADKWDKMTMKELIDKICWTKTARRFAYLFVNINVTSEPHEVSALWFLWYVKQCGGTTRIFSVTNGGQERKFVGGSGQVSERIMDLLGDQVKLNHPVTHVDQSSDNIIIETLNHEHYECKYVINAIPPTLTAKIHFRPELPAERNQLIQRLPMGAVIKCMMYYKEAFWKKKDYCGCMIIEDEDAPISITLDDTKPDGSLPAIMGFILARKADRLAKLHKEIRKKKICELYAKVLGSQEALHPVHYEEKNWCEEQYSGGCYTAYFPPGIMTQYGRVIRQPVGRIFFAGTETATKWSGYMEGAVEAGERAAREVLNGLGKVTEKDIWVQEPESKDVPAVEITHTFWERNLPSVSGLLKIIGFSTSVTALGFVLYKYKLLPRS

Molecular target: T1, Monoamine oxidase A (MAOA) (Homo sapiens, UniProt P21397)
T1 construct: the prostate cancer cell line LNCaP expressed a relatively high level of MAOA; endogenous in cells; host or cells: LNCaP cells (Cell Bank of the Chinese Academy of Sciences, Shanghai)
Experiment: MAOA inhibition activity assay in LNCaP cells (Cell MAOA Assay Kit)
Type: cell-based
Method: Because the prostate cancer cell line LNCaP expressed a relatively high level of MAOA [17, 40], we tested the inhibitory effect of compounds G10, G11, and G12 on MAOA using LNCaP cells (Table 2).
In a 10-mm dish, 6 × 10^5 LNCaP cells were plated in medium supplemented with 10% FBS. […] The reaction products were extracted and MAOA activities were measured as described in the introduction for the Cell MAOA Assay Kit (Shanghai Chengong Biotechnology, CHN, Lot No: 1-201838-10). The MAOA activity was assessed based on the substrate p-tyramine level after treatment with MAOB inhibitor pargyline.

C#CCN(C)CCCOc1ccc(Cl)cc1Cl [Clorgyline, reference compound]
MAOA inhibitory activity (in words): most potent inhibitory effect
